Results from patent US20260207602A1, “EGFR INHIBITORS” (Blueprint Medicines Corporation, priority 2022, published 2026).

The chains behind the UniProt entries cited, without tags or fusion partners. Where a name states a change or a piece, a line headed by the entry shows the natural chain unless it says otherwise. Residues count along the entry.
UniProt P00533, 25-1210 L858R limits assumed: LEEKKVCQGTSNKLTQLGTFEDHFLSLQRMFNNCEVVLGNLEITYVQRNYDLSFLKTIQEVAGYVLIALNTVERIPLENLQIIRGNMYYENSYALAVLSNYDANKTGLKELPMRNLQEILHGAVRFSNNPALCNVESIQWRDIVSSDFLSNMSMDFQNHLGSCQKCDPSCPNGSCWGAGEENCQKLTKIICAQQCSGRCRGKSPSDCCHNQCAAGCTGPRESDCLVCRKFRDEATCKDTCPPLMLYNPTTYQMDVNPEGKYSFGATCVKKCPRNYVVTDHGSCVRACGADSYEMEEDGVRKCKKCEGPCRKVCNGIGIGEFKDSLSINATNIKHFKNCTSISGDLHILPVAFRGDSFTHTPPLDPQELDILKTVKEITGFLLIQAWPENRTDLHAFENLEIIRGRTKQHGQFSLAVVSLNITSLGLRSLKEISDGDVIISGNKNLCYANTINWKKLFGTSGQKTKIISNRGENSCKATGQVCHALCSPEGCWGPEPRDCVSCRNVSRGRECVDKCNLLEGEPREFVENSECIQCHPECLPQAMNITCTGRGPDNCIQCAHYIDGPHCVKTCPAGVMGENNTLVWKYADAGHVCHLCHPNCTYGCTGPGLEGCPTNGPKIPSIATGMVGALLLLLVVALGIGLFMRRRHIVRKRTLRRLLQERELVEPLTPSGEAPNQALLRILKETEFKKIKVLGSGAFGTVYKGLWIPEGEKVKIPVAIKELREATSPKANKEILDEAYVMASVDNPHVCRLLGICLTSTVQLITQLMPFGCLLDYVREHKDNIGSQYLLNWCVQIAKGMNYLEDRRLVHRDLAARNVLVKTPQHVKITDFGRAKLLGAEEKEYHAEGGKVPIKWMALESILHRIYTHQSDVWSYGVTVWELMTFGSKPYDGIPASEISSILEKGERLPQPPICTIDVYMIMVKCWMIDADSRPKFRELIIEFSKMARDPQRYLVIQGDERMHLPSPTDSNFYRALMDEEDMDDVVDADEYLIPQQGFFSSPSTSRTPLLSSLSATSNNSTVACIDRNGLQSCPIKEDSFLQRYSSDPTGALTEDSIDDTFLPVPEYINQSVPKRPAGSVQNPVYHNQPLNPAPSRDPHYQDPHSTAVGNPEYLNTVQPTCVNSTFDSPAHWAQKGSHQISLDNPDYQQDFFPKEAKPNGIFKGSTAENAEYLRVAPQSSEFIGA

Tests used:
[1] = target: EGFR L858R (Homo sapiens, UniProt P00533, L858R); test: Biochemical EGFR inhibition assay (Caliper mobility shift), EGFR L858R; settings: read-out: Enz EGFR L858R IC50, EGFR L858R enzyme
[2] = target: EGFR (d746-750) (Homo sapiens, UniProt P00533, DEL746-750); test: Biochemical EGFR inhibition assay (Caliper mobility shift), EGFR (d746-750); settings: read-out: Enz EGFR Exon 19-del IC50, EGFR Exon 19-del enzyme
[3] = target: intracellular phosphorylation of EGFR (Tyr1068) in PC-9 cells (Homo sapiens, UniProt P00533, DEL746-750); test: PC-9 pEGFR AlphaLISA assay; settings: read-out: Phos EGFR PC9 IC50, 4 hours incubation

IC50 [1]: < 0.01 µM
IC50 [2]: < 0.01 µM
IC50 [3]: < 0.01 µM
Compound: CN1CCCC(Oc2cc(-c3cnn(C)c3)cc3ncnc(Nc4ccc5ncsc5c4)c23)C1 (single isomer, unassigned)
